The target in the assay is Kappa-type opioid receptor (Rattus norvegicus, UniProt P34975). The assay can be described thus: Displacement of [3H]U 69593 from rat recombinant kappa-type opioid receptor expressed in CHO cells. On the technique in general: In a radioligand displacement assay an active substance lowers the binding of a labelled ligand.

The chains behind the UniProt entries cited, without tags or fusion partners. Where a name states a change or a piece, a line headed by the entry shows the natural chain unless it says otherwise.
UniProt P34975: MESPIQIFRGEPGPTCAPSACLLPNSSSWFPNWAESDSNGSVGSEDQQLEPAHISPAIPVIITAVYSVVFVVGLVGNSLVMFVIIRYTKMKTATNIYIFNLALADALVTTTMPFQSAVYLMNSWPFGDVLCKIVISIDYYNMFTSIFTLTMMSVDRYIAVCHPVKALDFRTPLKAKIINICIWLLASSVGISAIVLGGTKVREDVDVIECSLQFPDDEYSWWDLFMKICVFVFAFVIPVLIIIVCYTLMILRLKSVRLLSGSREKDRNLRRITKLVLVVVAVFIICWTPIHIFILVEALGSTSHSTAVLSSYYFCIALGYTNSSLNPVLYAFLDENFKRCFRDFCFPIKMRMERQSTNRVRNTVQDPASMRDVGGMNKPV

In the case of `CN(C(=O)Cc1ccc(Cl)c(Cl)c1)C1CCCCC1N1CCCC1` (stereo unspecified), the IC50 amounted to 0.64 nM.

In general, IC50 refers to the midpoint of a concentration-inhibition curve.

Source of the values: ChEMBL document CHEMBL3774372, “Design, physico-chemical properties and biological evaluation of some new N-[(phenoxy)alkyl]- and N-{2-[2-(phenoxy)ethoxy]ethyl}aminoalkanols as anticonvulsant agents” (Bioorg Med Chem, 2016).
